Legend:
[1] = molecular target: anti-CD20 antibody (rituximab V regions), wild-type human IgG1 (human); experiment: ELISA
[2] = molecular target: anti-CD20 antibody (rituximab V regions), wild-type human IgG3 (with R435H) (human); experiment: ELISA

Protein sequences, listed by entry. Tags and fused reporters are not part of them. Residues count along the entry.
UniProt P02745, 23-245: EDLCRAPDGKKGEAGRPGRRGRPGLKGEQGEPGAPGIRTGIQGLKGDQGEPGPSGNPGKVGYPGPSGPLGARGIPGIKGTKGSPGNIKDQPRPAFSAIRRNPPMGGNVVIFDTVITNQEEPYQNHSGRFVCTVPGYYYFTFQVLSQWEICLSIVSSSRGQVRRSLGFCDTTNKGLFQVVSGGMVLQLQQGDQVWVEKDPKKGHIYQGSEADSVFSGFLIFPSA
UniProt P02746, 28-253: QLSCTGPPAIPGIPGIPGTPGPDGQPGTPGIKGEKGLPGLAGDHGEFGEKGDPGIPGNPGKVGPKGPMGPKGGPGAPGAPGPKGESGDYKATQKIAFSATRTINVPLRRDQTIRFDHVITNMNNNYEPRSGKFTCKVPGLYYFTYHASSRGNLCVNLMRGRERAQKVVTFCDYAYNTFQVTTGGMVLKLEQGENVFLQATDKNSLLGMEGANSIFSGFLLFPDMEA
UniProt P02747, 29-245: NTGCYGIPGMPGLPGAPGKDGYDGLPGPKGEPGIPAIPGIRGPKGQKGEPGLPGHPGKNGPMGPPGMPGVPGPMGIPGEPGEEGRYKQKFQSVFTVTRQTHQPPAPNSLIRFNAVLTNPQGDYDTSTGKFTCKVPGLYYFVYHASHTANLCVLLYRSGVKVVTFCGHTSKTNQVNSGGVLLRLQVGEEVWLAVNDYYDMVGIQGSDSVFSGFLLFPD

With “human C1q, coupled to horseradish peroxidase (from UniProt P02745;P02746;P02747) (complex)” the mean absorbance [1] was 0.579 and the mean absorbance [2] was 2.97.
